In article PMC8659078, “A Validated HPLC-PDA-HRMS Method to Investigate the Biological Stability and Metabolism of Antiparasitic Triterpenic Esters” (Molecules, 2021):

Assay: Metabolites analysis by HPLC-PDA-HRMS after incubation with male mouse pooled microsomes
Type: in vitro ADME
Settings: identification level 2

Q: With “ursolic acid-3-O-phenyl propionate [UA-3-O-PP]” as the substance, how does the “metabolic reaction of detected metabolite” value (15 µM) read?
A: Hydrolysis + Hydroxylation + Reduction

Q: What about the “metabolic reaction of detected metabolite” value (150 µM) of the same substance?
A: Hydrolysis + Hydroxylation + Reduction
